# From patent US20130123222A1, “Synergistic Anti-Cancer Activity of SR16388 with Anti-Mitotic Drugs” (SRI INTERNATIONAL, INC., priority 2011, published 2013)
# System: panel of 48 to 60 cell lines
# Assay: 5×4 combination screen with SR16388; synergism hit rate by algorithm (Z score)
# Type: cell-based
# Settings: in combination with SR16388, all 20 (5×4) dose combinations
# Method: SR16388 was synthesized in house.
# 5) A “combination score” was assigned to each specific combination (Ca1b1x): C=1 if Za1b1x>3*SD and C=0 if Za1b1x≦3*SD score);
# 6) Hit rate of each combination was calculated by comparing the sum of the combination scores of all 20 (5×4) dose combinations with all cell lines to the total number of data points of that specific combination;
# 7) Hit rate were ranked from high to low to identify potential synergistic combinations.
smiles,measurement,value
CC(=O)O[C@H]1C(=O)[C@@]2(C)[C@H]([C@H](OC(=O)c3ccccc3)[C@]3(O)C[C@H](OC(=O)[C@H](O)[C@@H](NC(=O)c4ccccc4)c4ccccc4)C(C)=C1C3(C)C)[C@]1(OC(C)=O)CO[C@@H]1C[C@@H]2O [Paclitaxel],% hit/combo,2.25%
